Drawing on paper PMC7723054, this text covers binding signal for 23 molecules.

Experiment in all cases: FOREST: bead pull-down of RNA structure library v1, barcode microarray; U1A/LIN28A: 20 mM HEPES pH 7.5, 80 mM KCl, 20 mM NaCl, 10% glycerol, 2 mM DTT, 0.1 ug/uL BSA, 4 C; BG4/CIRBP/DHX36: 10 mM Tris-HCl pH 7.5, 100 mM KCl (or LiCl),; high values mean tight binding
The target in assay [1] is U1A (Homo sapiens, UniProt P09012).
Assay [2] concerns the target T1, LIN28A (human?, UniProt Q9H9Z2 1-209).
T1 sequence: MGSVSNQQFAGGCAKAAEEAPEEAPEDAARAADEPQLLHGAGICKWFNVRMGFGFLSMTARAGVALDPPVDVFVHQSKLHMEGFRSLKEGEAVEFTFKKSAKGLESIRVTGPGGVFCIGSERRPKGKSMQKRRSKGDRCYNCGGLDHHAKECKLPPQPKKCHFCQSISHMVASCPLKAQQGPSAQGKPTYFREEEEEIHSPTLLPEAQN

The target of assay [3] is T2, CIRBP (Homo sapiens, UniProt Q14011 1-172).
T2 sequence: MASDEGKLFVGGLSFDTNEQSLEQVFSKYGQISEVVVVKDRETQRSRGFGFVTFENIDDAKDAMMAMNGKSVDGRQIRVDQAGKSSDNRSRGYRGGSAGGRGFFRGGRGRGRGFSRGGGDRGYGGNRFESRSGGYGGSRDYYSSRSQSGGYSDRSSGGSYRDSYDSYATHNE

Assay [4] deals with T3, DHX36 (Homo sapiens, UniProt Q9H2U1 1-1008).
T3 sequence: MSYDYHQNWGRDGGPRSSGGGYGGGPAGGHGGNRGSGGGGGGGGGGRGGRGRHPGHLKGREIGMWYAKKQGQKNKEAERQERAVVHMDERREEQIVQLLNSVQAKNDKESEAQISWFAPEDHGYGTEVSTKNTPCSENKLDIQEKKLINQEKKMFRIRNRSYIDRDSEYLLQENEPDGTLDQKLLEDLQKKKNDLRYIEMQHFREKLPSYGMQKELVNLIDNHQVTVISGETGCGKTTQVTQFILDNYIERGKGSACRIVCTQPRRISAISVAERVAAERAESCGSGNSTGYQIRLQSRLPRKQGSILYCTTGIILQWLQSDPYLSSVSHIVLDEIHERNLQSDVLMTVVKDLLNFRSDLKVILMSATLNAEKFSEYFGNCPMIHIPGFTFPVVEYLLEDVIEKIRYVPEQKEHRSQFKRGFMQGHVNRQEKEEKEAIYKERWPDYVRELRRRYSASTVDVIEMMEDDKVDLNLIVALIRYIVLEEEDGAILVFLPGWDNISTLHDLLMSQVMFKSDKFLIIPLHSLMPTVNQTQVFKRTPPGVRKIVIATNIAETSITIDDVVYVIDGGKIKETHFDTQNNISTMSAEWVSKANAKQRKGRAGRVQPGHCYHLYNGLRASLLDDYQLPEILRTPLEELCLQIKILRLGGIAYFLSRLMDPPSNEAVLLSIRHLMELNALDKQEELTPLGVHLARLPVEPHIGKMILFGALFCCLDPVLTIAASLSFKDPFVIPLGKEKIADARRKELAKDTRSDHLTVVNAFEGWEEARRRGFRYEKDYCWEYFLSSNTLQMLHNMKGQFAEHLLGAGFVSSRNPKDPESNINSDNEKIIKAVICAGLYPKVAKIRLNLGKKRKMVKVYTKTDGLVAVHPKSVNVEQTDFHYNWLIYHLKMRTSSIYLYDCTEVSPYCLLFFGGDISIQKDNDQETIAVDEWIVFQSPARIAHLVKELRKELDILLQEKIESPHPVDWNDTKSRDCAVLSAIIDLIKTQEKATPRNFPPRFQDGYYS

The other results are listed elsewhere or left out.

B1: hsa-mir-4775 (structured_RNA)
RNA: GGGAGGCAGCCAACGAAUUGAUGAUUCUGGUGUACGAAGUUUCAGCCUCUUGAUAGCAGACAUGCUGAAGCUUCGUGCAC
Turning to B1, the binding signal is 0.624 z-score in assay [1], 9.74e-05 z-score in assay [2], 0.0103 z-score in assay [3] and -0.201 z-score in assay [4].

B2: hsa-mir-194-2 (structured_RNA)
RNA: GGGACGUUACCACGACUAAGGUAAUGAUGGUGUACGAAGUUUCAGCGUGGAAGUGCCCACUGGUUCCAGCUGAAGCUUCGUGCAC
As for B2, the figures for the binding signal in assay [1], in assay [3] and in assay [4] were 0.646 z-score, 0.0117 z-score and 0.889 z-score, respectively.

B3: hsa-mir-5090 (structured_RNA)
RNA: GGGAAGGCCAAUACACUGUUCCCGGAUAGGUGUACGAAGUUUCAGCGGUGCAAAGCCUGCCCGCCCCGCUGAAGCUUCGUGCAC
For B3, the binding signal worked out at 0.647 z-score in assay [1], 0.77 z-score in assay [2], 0.358 z-score in assay [3] and 0.963 z-score in assay [4].

B4: hsa-mir-2277 (structured_RNA)
RNA: GGGACAGCAUGUGUUAGACUGGUAGGUUGGUGUACGAAGUUUCAGCGCCAGUCAGCGCUCACAUUAAGGCUGACGCUGAAGCUUCGUGCAC
In the case of B4, the binding signal in assay [1] was 0.62 z-score; in assay [2], 1.82 z-score; in assay [3], 0.174 z-score; in assay [4] it was -0.127 z-score.

B5: hsa-mir-573 (structured_RNA)
RNA: GGGAAAAGGGUGGGAUGAACUACAAUAAGGUGUACGAAGUUUCAGCUCAGGAUCUACUCAUGUCGUCUUUGGGCUGAAGCUUCGUGCAC
B5: the binding signal in assay [1] was 0.626 z-score; in assay [2], -0.672 z-score; in assay [3], -0.846 z-score; in assay [4], -1.14 z-score.

B6: hsa-mir-3664 (structured_RNA)
RNA: GGGAAUUGAAGCAACGAAACUAAGGCCUGGUGUACGAAGUUUCAGCGAGUACCUUCCAACACGAGCUCUCGCUGAAGCUUCGUGCAC
For the molecule B6, the binding signal in assay [1] was 0.642 z-score; in assay [2], 0.393 z-score; in assay [3], 0.923 z-score; in assay [4], -0.0932 z-score.

B7: hsa-mir-569 (structured_RNA)
RNA: GGGACGGUCCCAACUAGUGAACUGCUUUGGUGUACGAAGUUUCAGCAACAACAGCAUCAGAAGCAACAUCAGCUUUAGUUGCUGAAGCUUCGUGCAC
Take B7: the binding signal is 0.648 z-score in assay [1], 0.71 z-score in assay [2], -0.276 z-score in assay [3] and 0.194 z-score in assay [4].

B8: NEAT1_ParasoR_ID47 (structured_RNA)
RNA: GGGAAAGCACGUAUAGGGGAAUCAUAUCGGUGUACGAAGUUUCAGCCUGUCCUGAAGAGACCAAAAUUAUGCAGAUUUAGGUAAGGCUGAAGCUUCGUGCAC
B8: the binding signal was 0.656 z-score in assay [1], 1.06 z-score in assay [2], 1.12 z-score in assay [3] and -0.0344 z-score in assay [4].

B9: hsa-mir-4698 (structured_RNA)
RNA: GGGAAGCGGGCAAAUGAGGUGCGUUUAAGGUGUACGAAGUUUCAGCUCCACCUAGACGGGCCUGGGUCAAGCUGAAGCUUCGUGCAC
With B9, the binding signal in assay [1] is 0.653 z-score; in assay [2] it was 0.0757 z-score; in assay [3], -0.324 z-score; in assay [4], 0.101 z-score.

B10: hsa-mir-769 (structured_RNA)
RNA: GGGAAGUCAUAGACUGCCUGCAGCAUAAGGUGUACGAAGUUUCAGCUGAGCUGUGAUGUUGCUCUCGAGCUGGGCUGAAGCUUCGUGCAC
As for B10, the binding signal was 0.631 z-score in assay [1], 0.368 z-score in assay [2], -0.143 z-score in assay [3] and -0.459 z-score in assay [4].

B11: hsa-mir-6883 (structured_RNA)
RNA: GGGAAGAGCCAUGCUACGACGAUUAACUGGUGUACGAAGUUUCAGCGGAUGUGUUGACCCCUGAAGUGGUUCUGAUGACCUUUCCGCUGAAGCUUCGUGCAC
For the molecule B11, the binding signal in assay [1] is 0.623 z-score; in assay [2] it was -0.675 z-score; in assay [3] it was -0.00776 z-score; in assay [4] it was -0.428 z-score.

B12: hsa-mir-6124 (structured_RNA)
RNA: GGGAACCACUACUGGUGCCAGCGAUUUUGGUGUACGAAGUUUCAGCAGGAGAAGGUGAGACCAAUGUCCUGGGUGCCACUCCUGCUGAAGCUUCGUGCAC
As to B12, the binding signal in assay [1] was 0.632 z-score; in assay [2], 0.0957 z-score; in assay [3], -0.202 z-score; in assay [4], -0.118 z-score.

B13: hsa-mir-613 (structured_RNA)
RNA: GGGAGGAUAUGCCAACCGGACAUGCAAGGGUGUACGAAGUUUCAGCUCCUGUAGUGUCUUAUAUACAAUACAGUAGGAGCUGAAGCUUCGUGCAC
For the molecule B13, the binding signal was 0.628 z-score in assay [1], -0.238 z-score in assay [2], -0.454 z-score in assay [3] and -0.0761 z-score in assay [4].

B14: hsa-mir-1283-1 (structured_RNA)
RNA: GGGAAAGGAACAUGAGGUAUGACGUAAUGGUGUACGAAGUUUCAGCUUCUGUUGUCAGAAAGAAGAGAAGCUGAAGCUUCGUGCAC
For B14, the binding signal in assay [1] is 0.628 z-score; in assay [2], -0.178 z-score; in assay [3], 0.258 z-score; in assay [4], 0.285 z-score.

B15: hsa-mir-30b (structured_RNA)
RNA: GGGAAGACCCAUAUGCUUUAAGUGGUAGGGUGUACGAAGUUUCAGCUCAGCUGUAAUACAUGGAUUGGCUGGGCUGAAGCUUCGUGCAC
For B15, the binding signal is 0.628 z-score in assay [1], 1.27 z-score in assay [2], 0.793 z-score in assay [3] and -0.573 z-score in assay [4].

B16: hsa-mir-4286 (structured_RNA)
RNA: GGGAACGCGAAGGGUUGUUUAUUGCAAGGGUGUACGAAGUUUCAGCACCAUAGUCAUAAGUUAGGAGAUGUUAGAGCUGUGAGUGCUGAAGCUUCGUGCAC
As for B16, the binding signal in assay [1] was 0.655 z-score; in assay [2], 1.69 z-score; in assay [3], 1.62 z-score; in assay [4], -0.899 z-score.

B17: hsa-mir-7107 (structured_RNA)
RNA: GGGAACUAAGCAGCAAUUAAAAGUGCGCGGUGUACGAAGUUUCAGCAGGGCAAGUCCAAAGGUAUACAGUUGGUCUGUUCAGCUGAAGCUUCGUGCAC
With B17, the binding signal in assay [1] is 0.629 z-score; in assay [2], 1.18 z-score; in assay [3], 0.116 z-score; in assay [4], 0.0271 z-score.

B18: hsa-mir-597 (structured_RNA)
RNA: GGGAACACCCUCUCUGGGAUUUACGGUGGGUGUACGAAGUUUCAGCACCACUGUGAAGACAGUAAAAUGUACAGUGGUGCUGAAGCUUCGUGCAC
Consider B18, for which the binding signal in assay [1] was 0.641 z-score; in assay [2], -0.167 z-score; in assay [3], -0.697 z-score; in assay [4], -1.34 z-score.

B19: hsa-mir-4478 (structured_RNA)
RNA: GGGAAUCGGGUCACAGCGACAAUGAAACGGUGUACGAAGUUUCAGCAGCCUCCAAACCUGUAGACAGGGUCAUGCAGUACUAGGGGCGAGGCUGAAGCUUCGUGCAC
Turning to B19, the binding signal in assay [1] was 0.619 z-score; in assay [2] it was 0.177 z-score; in assay [3], -1.27 z-score; in assay [4] it was 0.797 z-score.

B20: hsa-mir-7154 (structured_RNA)
RNA: GGGACGAUAAUAUAGCGACCCCUGACUAGGUGUACGAAGUUUCAGCGCUUGGAGCCUUGGUAGGGAAGCAAGCUGAGGAGAUAGGAGCUGAAGCUUCGUGCAC
For B20, the binding signal was 0.621 z-score in assay [1], 1.35 z-score in assay [2], -0.0406 z-score in assay [3] and 0.898 z-score in assay [4].

B21: hsa-mir-550a-1 (structured_RNA)
RNA: GGGAACCUCAGGAGCGCAAGCCUUGAUCGGUGUACGAAGUUUCAGCAGCCCUGUUGUUGUAAGAUAGUGUGCUGAAGCUUCGUGCAC
Take B21: the binding signal is 0.653 z-score in assay [1], 0.83 z-score in assay [2], 0.441 z-score in assay [3] and -0.0353 z-score in assay [4].

B22: dU1A (structured_RNA)
RNA: GGGAGCCUUGUCACGGGGCGAAUAUUUCGGUGUACGAAGUUUCAGCAUUACGGUCCGCUGAAGCUUCGUGCAC
As to B22, the binding signal is 0.618 z-score in assay [1], 1.03 z-score in assay [2], -0.196 z-score in assay [3] and 0.482 z-score in assay [4].

B23: hsa-mir-4312 (structured_RNA)
RNA: GGGACACCGGAUUACAGCAGCCUACAAGGGUGUACGAAGUUUCAGCGGAGCCUUCCCCAGAGGAGUCAGGCCGCUGAAGCUUCGUGCAC
B23: the binding signal was 0.619 z-score in assay [1], -1.07 z-score in assay [2], 0.275 z-score in assay [3] and -0.953 z-score in assay [4].
